Tested on: septic shock patients
Test: Randomized albumin vs saline volume expansion in septic shock; skin endothelial response to acetylcholine iontophoresis
Format: in vivo
Description: Patients and methods: We performed a prospective randomized monocentric study in an 18-bed medical intensive care unit. All patients with septic shock who required fluid administration were included between H6 and H24 after vasopressor starting. Patients were randomized to receive either 500 ml of saline solution 0.9% or 100 ml of albumin 20%. Norepinephrine dose was not modified 1 h before and during the procedure. Endothelium-dependant vasodilatation in the skin circulation was assessed by iontophoresis of acetylcholine before and after fluid administration. The improvement of skin blood flow in response to acetylcholine after fluid administration was compared between groups. For each patient, age, sex, SAPS II, site of infection, global hemodynamic parameters and clinical microcirculatory parameters were recorded. Results are expressed as mean ± SD. Qualitative data were compared using Chi-2 or Fisher’s exact test while quantitative data comparisons used Student t Test or Mann–Whitney as appropriate.

Human serum albumin
increase of systolic arterial pressure after volume expansion (100 ml albumin 20% (n = 10) or 500 ml saline 0.9% (n = 12)): 7%
improvement of endothelial response after acetylcholine challenge (before vs after fluid infusion, 100 ml albumin 20% or 500 ml saline 0.9%): 196%

Source: publication PMC5799093, “Proceedings of Réanimation 2018, the French Intensive Care Society International Congress” (Annals of Intensive Care, 2018)
